Experimental data reported in article PMC12135508 (Antimicrobial Agents and Chemotherapy, 2025).

By UniProt entry, the sequences of proteins in these tests, tags left out. Residues count along the entry.
UniProt Q9F663, 25-293 limits assumed: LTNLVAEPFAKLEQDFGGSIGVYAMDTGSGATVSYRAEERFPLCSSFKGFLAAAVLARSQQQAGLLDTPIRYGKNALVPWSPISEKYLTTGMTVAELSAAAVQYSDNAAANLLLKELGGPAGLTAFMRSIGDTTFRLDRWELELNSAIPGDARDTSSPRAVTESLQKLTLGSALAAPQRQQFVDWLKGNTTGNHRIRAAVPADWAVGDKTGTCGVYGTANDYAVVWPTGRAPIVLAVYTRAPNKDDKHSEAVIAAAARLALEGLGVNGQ
UniProt Q9F663, 25-240, added parts left off, stated change not applied: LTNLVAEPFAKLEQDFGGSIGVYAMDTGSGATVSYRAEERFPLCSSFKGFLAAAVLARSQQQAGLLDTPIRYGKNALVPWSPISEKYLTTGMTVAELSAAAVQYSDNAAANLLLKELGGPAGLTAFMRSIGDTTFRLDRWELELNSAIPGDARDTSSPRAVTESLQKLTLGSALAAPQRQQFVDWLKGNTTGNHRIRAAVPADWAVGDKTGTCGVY

Columns and labels:
KPC-2 = molecular target: T1, KPC-2 (Klebsiella pneumoniae, UniProt Q9F663); experiment: biochemical
T1 construct: The complete blaKPC-2 gene was amplified from whole DNA; made in house; host or cells: E. coli BL21(DE3), pET24a(+)

KPC-14 = KPC-14 (Klebsiella pneumoniae, UniProt Q9F663, DEL241-242); experiment: Inhibition kinetics of DBO inhibitors on KPC-14 (nitrocefin competition); type: biochemical; set-up: amplify the entire blaKPC-14 gene with the cloning primers; made in house; host or cells: E. coli BL21(DE3), pET24a(+); conditions: nitrocefin reporter, corrected, read-out: Ki app

## O=C(NC1CCNCC1)[C@@H]1CC[C@@H]2CN1C(=O)N2OS(=O)(=O)O [Relebactam, relebactam]
KPC-2
  Ki: 0.06 ± 0.0007 µM
KPC-14
  Ki: 22.9 ± 0.9 µM
